# Test results as given in ChEMBL document CHEMBL1140464, “Synthesis and structure-activity relationship of 4-(2-aryl-cyclopropylamino)-quinoline-3-carbonitriles as EGFR tyrosine kinase inhibitors” (Bioorg Med Chem Lett, 2007).
# Protein sequences, listed by entry. Tags and fused reporters are not part of them.
# UniProt P00519, whole entry: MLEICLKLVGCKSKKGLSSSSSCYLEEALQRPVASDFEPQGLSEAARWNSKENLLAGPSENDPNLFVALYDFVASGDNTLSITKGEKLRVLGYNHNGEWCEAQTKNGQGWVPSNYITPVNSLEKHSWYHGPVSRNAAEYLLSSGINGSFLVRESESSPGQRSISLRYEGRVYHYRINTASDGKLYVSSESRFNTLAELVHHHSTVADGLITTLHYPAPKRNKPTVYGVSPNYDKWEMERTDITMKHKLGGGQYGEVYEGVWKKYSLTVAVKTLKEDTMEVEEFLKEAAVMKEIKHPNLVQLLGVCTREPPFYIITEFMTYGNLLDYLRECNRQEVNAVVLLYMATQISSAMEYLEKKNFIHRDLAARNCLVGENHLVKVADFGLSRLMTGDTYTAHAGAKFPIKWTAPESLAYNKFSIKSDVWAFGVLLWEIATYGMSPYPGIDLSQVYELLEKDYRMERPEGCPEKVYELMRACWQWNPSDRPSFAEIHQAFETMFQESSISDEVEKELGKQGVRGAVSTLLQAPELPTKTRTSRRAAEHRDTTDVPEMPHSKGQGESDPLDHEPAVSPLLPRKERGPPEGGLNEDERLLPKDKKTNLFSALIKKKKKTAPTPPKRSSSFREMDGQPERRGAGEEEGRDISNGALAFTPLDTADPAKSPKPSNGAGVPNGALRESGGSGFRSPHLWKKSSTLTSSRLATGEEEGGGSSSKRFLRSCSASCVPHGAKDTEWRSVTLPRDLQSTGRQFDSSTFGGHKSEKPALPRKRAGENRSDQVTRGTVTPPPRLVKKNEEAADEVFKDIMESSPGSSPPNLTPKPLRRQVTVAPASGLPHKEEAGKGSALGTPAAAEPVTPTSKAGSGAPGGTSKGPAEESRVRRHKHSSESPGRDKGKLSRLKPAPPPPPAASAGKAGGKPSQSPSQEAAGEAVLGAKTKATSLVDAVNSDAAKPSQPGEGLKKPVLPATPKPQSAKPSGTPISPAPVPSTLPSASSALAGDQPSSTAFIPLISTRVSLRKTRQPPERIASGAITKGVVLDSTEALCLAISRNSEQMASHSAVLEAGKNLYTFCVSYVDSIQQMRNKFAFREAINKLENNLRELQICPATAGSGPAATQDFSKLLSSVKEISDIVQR
# Molecular target: Tyrosine-protein kinase ABL1 (Homo sapiens, UniProt P00519)
# Assay: Inhibition of ABL
structure (smiles),measurement,value
N#Cc1cnc2cc(-c3ccc(CN4CCOCC4)cc3)ccc2c1N[C@@H]1C[C@H]1c1ccccc1,Ki,300 nM
